Results reported in PubChem BioAssay AID651710 (Broad Institute, 2012).
Only a part is listed here, and it is no random draw. Calls of active or inactive are those of the source.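 How the source made its calls: active means every replicate showing at least 50% inhibition; inconclusive means mean inhibition at least 50% but not in every replicate; inactive means the rest.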

By UniProt entry, the sequences of proteins in these tests, tags left out. Where a name states a change or a piece, a line headed by the entry shows the natural chain unless it says otherwise.
UniProt P43351: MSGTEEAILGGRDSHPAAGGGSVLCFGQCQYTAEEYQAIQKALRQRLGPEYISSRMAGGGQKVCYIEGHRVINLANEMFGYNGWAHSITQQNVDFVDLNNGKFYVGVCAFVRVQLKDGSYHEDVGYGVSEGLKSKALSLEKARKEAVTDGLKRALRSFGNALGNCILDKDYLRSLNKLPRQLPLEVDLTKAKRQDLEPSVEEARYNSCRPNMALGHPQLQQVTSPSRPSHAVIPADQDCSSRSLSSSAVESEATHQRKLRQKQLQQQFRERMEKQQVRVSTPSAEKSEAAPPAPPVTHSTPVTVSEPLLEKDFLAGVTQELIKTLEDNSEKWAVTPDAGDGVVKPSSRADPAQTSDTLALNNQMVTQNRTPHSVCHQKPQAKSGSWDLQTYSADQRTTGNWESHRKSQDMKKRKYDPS

biological target: DNA repair protein RAD52 homolog (Homo sapiens) (UniProt P43351); assay: RAD52 DNA annealing inhibitors, primary screen, biochemical, FRET, single point, set 2 (AID 651710); settings: recombinant RAD52 DNA annealing, FRET fluorescence; at 18.7 µM; hits give high values

Structure (SMILES)	inhibition
CN(C(=O)Cc1ccc(Cl)c(Cl)c1)[C@H]1CCCC[C@@H]1N1CCCC1	inactive: -6.53%
O=P(Nc1nc2ccc(Cl)cc2s1)(c1ccccc1)c1ccccc1	inactive: -4.32%
CN(C)P(=O)(N(C)C)n1c(Nc2ccccc2)nnc1-c1ccccc1	inactive: 2.92%
CCCC1OP(N)(=O)OCC1CC (stereo not given)	inactive: -1.26%
CC(=O)Nc1ccc([As](=O)(O)O)cc1	inactive: -0.67%
O=C(O)c1ccccc1[As](=O)(O)O	inactive: -5.53%
Nc1cccc2ccc([As](=O)(O)O)cc12	inactive: -38.7%
CN(C(=O)Cc1ccccc1)C1CC[C@@]2(CCCO2)C[C@@H]1N1CCCC1 (stereo not given in full)	inactive: -63.5%
O=P1(N(CCCl)CCCl)OCCC2CCCCN21 (stereo not given)	inactive: 3.76%
Cc1ccc(NP(=O)(Oc2cccc(C)c2)Oc2cccc(C)c2)nc1	inactive: 1.68%
c1ccc(-c2nn[nH]n2)c(-c2nn[nH]n2)c1	inactive: -16.9%
CCNC(=S)/N=C(\N)N[N+](=O)[O-]	inactive: -5.79%
O=C(NC1CCS(=O)(=O)C1)NP(=S)(Oc1ccccc1)Oc1ccccc1 (stereo not given)	inactive: -1.9%
O=c1c2cc([N+](=O)[O-])ccc2[nH]c2c([N+](=O)[O-])cc([N+](=O)[O-])cc12	inactive: -9.92%
CN(C)C(=O)Oc1noc2ccccc12	inactive: -7.25%
CC(NC(=O)COC(=O)C(O)(c1ccccc1)c1ccccc1)c1ccccc1 (stereo not given)	inactive: -7.33%
Cc1ccccc1OP(=O)(Nc1ccccn1)Oc1ccccc1C	inactive: -17.5%
O=C(OC1CN2CCC1CC2)c1ccccc1 (stereo not given)	inactive: -6.42%
Cc1ccc(OP(=O)(Nc2ccccn2)Oc2ccc(C)cc2)cc1	inactive: -21.7%
CC(C)(C)C(=O)NC(Sc1ccccc1)C(Cl)(Cl)Cl (stereo not given)	inactive: -4.85%
CCc1cc(O)c([N+](=O)[O-])c(C)c1[N+](=O)[O-]	inactive: -13.9%
CCOc1ccc(C2=NCC(CBr)S2)cc1 (stereo not given)	inactive: -5.17%
CC(=O)Nc1ccc(Oc2c([N+](=O)[O-])cc([N+](=O)[O-])cc2[N+](=O)[O-])cc1	inactive: -9.33%

Structure (SMILES)	inhibition
CC(=O)Nc1ccc([As](=O)(O)O)c(O)c1	inactive: -4.69%
C[C@H]1OP(=O)(Oc2ccccc2)C[C@@H]2O[C@@H]21 (stereo not given in full)	inactive: -5.6%
C[C@@H]1C=CCP(=O)(Oc2ccccc2)O1 (stereo not given in full)	inactive: 1.42%
Cc1ccccc1CN(C)C(=O)COC(=O)C(O)(c1ccccc1)c1ccccc1	inactive: -15%
COC(=O)C1(C)COP(=O)(NCc2ccccc2)OC1 (stereo not given)	inactive: -5.94%
CC(=O)c1ccc(N2CC2c2ccncc2)cc1 (stereo not given)	inactive: -6.35%
N#C/C(=C\c1ccc(N(CCBr)CCBr)cc1)C(N)=O	inactive: 0.155%
C[C@H]1OP(=O)(Oc2ccccc2)[C@H](O)[C@H](O)[C@H]1N=[N+]=[N-] (stereo not given in full)	inactive: -1.03%
O=P(Nc1nc2ccccc2s1)(c1ccccc1)c1ccccc1	inactive: -0.229%
O=P(Nc1ccccn1)(c1ccc(Br)cc1)c1ccc(Br)cc1	inactive: -2.89%
CN(C)C1(CNC(=O)c2ccc(Cl)c(S(N)(=O)=O)c2)CCCCC1	inactive: -7.54%
COc1ccc(N)c([N+](=O)[O-])c1[N+](=O)[O-]	inactive: 7.19%
Nc1ccc(CCCCOc2ccccc2)cc1	inactive: -13.4%
C(Cc1nn[nH]n1)Cc1nn[nH]n1	inactive: -6.42%
Nc1ccc([As](=O)(O)c2ccc([N+](=O)[O-])cc2)cc1	inactive: -5.63%
C/C(N)=N\P(=O)(OCc1ccccc1)OCc1ccccc1	inactive: -3.93%
O=[As](O)(c1ccccc1)c1ccc(O)cc1	inactive: 8.56%
O=[N+]([O-])c1ncn(CCn2cnc([N+](=O)[O-])n2)n1	inactive: -12.1%
CC(=O)NC(SC(=S)N(C)C)C(Cl)(Cl)Cl (stereo not given)	inactive: -18.9%
CN(C)C1(CNC(=O)c2ccc(S(C)(=O)=O)cc2)CCCCC1	inactive: -6.84%
CCCC1OP(=O)(Nc2ccccc2)OCC1CC (stereo not given)	inactive: -3.17%
O=C(/C=C/c1ccccc1)OC1CN2CCC1CC2 (stereo not given)	inactive: -5.33%
CC1CCC(C(C)C)C(OP(=O)(Nc2ccccn2)c2ccccc2)C1 (stereo not given)	inactive: -8.93%

Structure (SMILES)	inhibition
Cc1ccc(C(=O)OC2CN3CCC2CC3)cc1 (stereo not given)	inactive: -8.19%
Nc1cccc([As](=O)(O)c2ccccc2)c1	inactive: -1.14%
O=[As](O)(c1cccs1)c1cccs1	inactive: -6.35%
NS(=O)(=O)c1cccc(NC(=O)COC(=O)C(O)(c2ccccc2)c2ccccc2)c1	inactive: -9.32%
Cc1ccc(S(=O)(=O)N(CCCN)CCCc2c(C)nc(N)[nH]c2=O)cc1	inactive: -17.6%
CC(C)(C)C(=O)NC(Sc1ncccn1)C(Cl)(Cl)Cl (stereo not given)	inactive: -11.4%
O=P1(N(CCCl)CCCl)NCCC(C(F)(F)F)O1 (stereo not given)	inactive: -10.8%
CCOP(=O)(NC(=NC(C)c1ccccc1)NC(C)c1ccccc1)OCC (stereo not given)	inactive: -10.7%
CCC1=CC2Cc3nc4ccc(Cl)cc4c(N)c3C(C1)C2 (stereo not given)	inactive: -0.776%
CCOP(=O)(Nc1ccc(C)cn1)OCC	inactive: -4.85%
CN(CCCl)Cc1cc(Cl)c(NC2=NCCN2)c(Cl)c1	active: 71.2%
CN(C(=O)Cc1ccc(Cl)c(Cl)c1)C1CCCC[C@@H]1N1CCCC1 (stereo not given in full)	inactive: -6.51%
CC(C)/C=N\N=C(\N)N[N+](=O)[O-]	inactive: -11.8%
CN(C(=O)Cc1ccc(Cl)c(Cl)c1)[C@@H]1CCCC[C@H]1N1CCCC1	inactive: 6.09%
COc1ccccc1CNC(=O)COC(=O)C(O)(c1ccccc1)c1ccccc1	inactive: 1.1%
O=[As](O)(c1cccc(O)c1)c1cccc(O)c1	inactive: -1.06%
O=C(OC1CN2CCC1CC2)c1ccc(Cl)cc1 (stereo not given)	inactive: 8.57%
CS(=O)(=O)c1ccc(Cl)c(NC(=O)COC(=O)C(O)(c2ccccc2)c2ccccc2)c1	inactive: 3.56%
O=[As](O)(O)c1cccnc1	inactive: -13.6%
COc1cc(C(=O)NCC2(N3CCOCC3)CCCCC2)cc(Cl)c1OC(C)C	inactive: -17.2%
CCOP(=O)(Nc1cccc2ccccc12)OCC	inactive: -12.9%
Nc1cccc2c([As](=O)(O)O)cccc12	inactive: -113%
Cc1ccc(NCCc2c([N+](=O)[O-])cc([N+](=O)[O-])cc2[N+](=O)[O-])cc1	inactive: -1.19%

Structure (SMILES)	inhibition
CCCOP(=S)(Nc1nc(N)cc(=O)[nH]1)OCCC	inactive: -18.6%
Nc1ccccc1[As](=O)(O)c1ccccc1	inactive: -4.28%
O=C(O)COc1ccc([As](=O)(O)O)cc1[N+](=O)[O-]	inactive: -14.3%
O=P(Nc1nccs1)(Oc1ccccc1)Oc1ccccc1	inactive: -6.13%
CCOP1(=S)c2c(C)nn(CCC#N)c2N=C(c2ccccc2F)N1C (stereo not given)	inactive: -1.77%
CCOP1(=S)c2c(C)nn(CCC#N)c2N=C(c2ccc(F)cc2)N1C (stereo not given)	inactive: -5.02%
CN(C(=O)Cc1ccccc1)[C@@H]1CC[C@]2(CCCO2)C[C@H]1N1CCCC1	inactive: -55.1%
N#CCCN(C(=O)COC(=O)C(O)(c1ccccc1)c1ccccc1)c1ccc(F)cc1	inactive: 0.163%
CN(C(=O)Cc1ccc(Cl)c(Cl)c1)[C@H]1CC[C@@]2(CCCO2)C[C@@H]1N1CCCC1	inactive: -11.5%
CN(C)C(=O)c1cc([N+](=O)[O-])cc2c1-c1c(cc([N+](=O)[O-])cc1[N+](=O)[O-])C2=O	inactive: -0.502%
NC(=O)Nc1ccc([As](=O)(O)O)cc1	inactive: -1.2%
[N-]=[N+]=NC1CCCCC1NC(=O)c1cc([N+](=O)[O-])cc([N+](=O)[O-])c1 (stereo not given)	inactive: -5.17%
Cc1ccc(OP(=O)(Nc2ccc([N+](=O)[O-])cn2)Oc2ccc(C)cc2)cc1	inactive: -10%
Cc1ccc2nc3c(c(C)c2c1)CC(C(Cl)Cl)S3 (stereo not given)	inactive: -46%
O=[N+]([O-])c1ccc(-c2cc([N+](=O)[O-])c(O)c([N+](=O)[O-])c2)cc1	inactive: 6.22%
COc1cc(C(=O)NCC2(N3CCOCC3)CCCCC2)ccc1OCC(C)C	inactive: -29.7%
C[As](=O)(O)c1cccc(C(=O)O)c1	inactive: 2.71%
O=[As](O)(c1ccc(O)cc1)c1ccccc1O	inactive: -2.59%
CC(C)NC(=O)NP(=O)(Oc1ccccc1)Oc1ccccc1	inactive: -1.31%
O=C(OC1CN2CCC1CC2)c1cccc2[nH]cnc12 (stereo not given)	inactive: 31.3%
COC(=O)C1(C)COP(=O)(N2CCCCCC2)OC1 (stereo not given)	inactive: -3.9%
CC(C)c1ccc(OP(=O)(Nc2ccccn2)Oc2ccccc2F)cc1 (stereo not given)	inactive: -2.34%
COc1ccc(CN2/C(=N\P(=O)(Oc3ccccc3)Oc3ccccc3)Cc3ccccc3C2C2CC2)cc1 (stereo not given)	inactive: 14.4%

Structure (SMILES)	inhibition
O=P1(N(CCCl)CCCl)OCCCN1CCCl (stereo not given)	inactive: -1.11%
O=P1(N(CCCl)CCCl)Nc2ccccc2N1	inactive: -14.1%
COc1cc(I)ccc1[As](=O)(O)O	inactive: -0.409%
COc1ccc2nc(NP(=O)(c3ccccc3)c3ccccc3)sc2c1	inactive: -5.85%
Cc1c2c(nc3ccccc13)SC(C(Cl)Cl)C2 (stereo not given)	inactive: -7.1%
Cc1cc(=O)[nH]c(N[N+](=O)[O-])n1	inactive: -5.24%
O=[N+]([O-])c1cc(Oc2ccc([N+](=O)[O-])cc2C(F)(F)F)cc([N+](=O)[O-])c1	inactive: -1.67%
COc1ccc(N/C(=N/P(=O)(N2CCOCC2)N2CCOCC2)N2CCOCC2)cc1	inactive: -18.9%
O=C(O)C(=O)c1ccc(N(CCCl)CCCl)cc1	inactive: -13.3%
O=C(Nc1ccncc1[N+](=O)[O-])c1ccc([N+](=O)[O-])cc1[N+](=O)[O-]	inactive: -6.62%
COC(=O)C1(C)COP(=O)(N2CCCC2)OC1 (stereo not given)	inactive: -2.84%
COP1(=S)c2c(C)nn(CCC#N)c2N=C(c2ccc(F)cc2)N1C (stereo not given)	inactive: -7.26%
O=C(OC1CN2CCC1CC2)c1cccc([N+](=O)[O-])c1 (stereo not given)	inactive: -2.71%
CCOC(=O)c1ccc(NC(=O)C(C)(CCl)SC)cc1 (stereo not given)	inactive: 4.05%
COP(=O)(OC)N1CC1c1ccccc1 (stereo not given)	inactive: -3.95%
CCCCOc1ccc(C(=O)NCC2(N3CCCCC3)CCCCC2)cc1OC	inactive: -12.8%
CCOC(=O)Nc1ccc([As](=O)(O)O)c(O)c1	inactive: -13.7%
O=C(O)C(O)c1ccc(N(CCCl)CCCl)cc1 (stereo not given)	inactive: -23.3%
CC1CCNP(=O)(N(CCCl)CCCl)O1 (stereo not given)	inactive: 5.24%
O=P(Nc1ccccn1)(c1cccc2ccccc12)c1cccc2ccccc12	inactive: 16.8%
Cc1cc(SC(NC=O)C(Cl)(Cl)Cl)ncn1 (stereo not given)	inactive: -30.5%
O=[N+]([O-])c1ccc(Nc2ccc(Oc3ccc([N+](=O)[O-])cc3[N+](=O)[O-])cc2)c([N+](=O)[O-])c1	inactive: -2.1%
CCOC(=O)Nc1cccc([As](=O)(O)O)c1	inactive: -7.04%
